# Measurements from patent US20100104511A1, “METHODS AND COMPOSITIONS USING CHELATOR-ANTIBODY CONJUGATES” (priority 2006, published 2010).
# Tested on: A431 cells
# Assay: Apoptosis by Annexin-V-Fluos staining and flow cytometry
# Settings: A431, 10 μM, 72 hours
compound,measurement,value
COc1cc2ncnc(Nc3ccc(F)c(Cl)c3)c2cc1OCCCN1CCOCC1 [gefitinib],apoptosis percentage after deducting DMSO control,24.7%
